This is an account of results in PubChem BioAssay AID504648 (National Center for Advancing Translational Sciences (NCATS), 2011).

Structures are written as SMILES. The list shows a part of the results, in another mix than the full data. Some results for these compounds are left out of this collection, so the calls shown say nothing about other tests. Results filed as inconclusive are left out. The source made the active and inactive calls. Calls follow the shape of the dose curve; as a rule, active = well fitted inhibition curve with a large enough effect; inconclusive = small, poorly fitted or top-dose-only effect, or effect the other way, or another doubt; inactive = no such curve, though single readings can be large or run the other way.
% is scaled to controls: 0 for no effect and ±100 for the full control effect.

The experiment is described as follows: Nrf2 qHTS screen for inhibitors: counterscreen for cytotoxicity. To be noted: A549 ARE-Fluc cells, CellTiter-Fluor viability, 18-24 h; at 46 µM (top of the series). An excerpt:
NIH Molecular Libraries Probe Production Network [MLPCN]
NIH Chemical Genomics Center [NCGC]
Assay Provider: Shyam Biswal, Johns Hopkins University
Nrf2 is a transcription factor that maintains cellular redox homoestasis and protects cells from xenobiotics. Nrf2 binds to the antioxidant response element (ARE) to induce gene expression of a broad spectrum of genes that encode for antioxidants. […] Finding a small molecule that act as an inhibitor of Nrf2 function would represent a novel therapeutic target that could lead to improvement in survival of patients undergoing chemo- and/or radio- therapy.
So here we implemented a counterscreen to weed out the cytotoxic compounds.
1. […]
A concentration-response assay was performed with A549 ARE_Fluc cells which are suspended in 5% FBS OPTI-MEM. […] The plate is then incubated at 37deg C at 5% CO2 for 30 minutes before they are read on the ViewLux (Perkin Elmer) for a fluorescent read Ex=405(10)/Em=525(10) for a 3 second exposure, 2x binning, and high gain. […] Afterwards another ViewLux read is performed using the clear filter to get a luminescent read with the settings of 40 second exposure, 2x binning, and high gain. Cytotoxicity is assessed through the first fluorescent read and then biochemical activity against Nrf2 is measured in the luminescent read.
For the compound `C=CCN1CCN(CCOC(=O)C(O)(c2ccccc2)c2ccccc2)CC1`, the activity change, negative = cytotoxicity was inactive: -2.01%.

For the compound `CC(C)N1C(=O)CC2(CCN(CCOC(=O)C(O)(c3ccccc3)c3ccccc3)CC2)C1=O`, the activity change, negative = cytotoxicity is inactive: -1.62%.
